These results are taken from patent publication US20150141411A1, “SUBSTITUTED 3,4-DIHYDRO-2H-PYRIDO[1,2-A]PYRAZINE-1,6-DIONE DERIVATIVES USEFUL FOR THE TREATMENT OF (INTER ALIA) ALZHEIMER'S DISEASE” (Janssen Pharmaceuticals, Inc., priority 2012, published 2015).

For orientation: IC50 means the concentration that inhibits the measured activity by half.

The target of assay [1] is T1, γ-secretase (Homo sapiens, UniProt P49768). The assay can be described thus: Screening for γ-secretase-modulating activity: Aβ42 in supernatant of SKNBE2 cells carrying hAPP 695 wild type (Alphalisa). The protocol:
(§1) Screening was carried out using SKNBE2 human neuroblastoma cells carrying the hAPP 695—wild type, grown in Dulbecco's Modified Eagle's Medium/Nutrient mixture F-12 (DMEM/NUT-mix F-12) (HAM) provided by Invitrogen (cat no. 10371-029) containing 5% Serum/Fe supplemented with 1% non-essential amino acids, 1-glutamine 2 mM, Hepes 15 mM, penicillin 50 U/ml (units/ml) en streptomycin 50 μg/ml. Cells were grown to near confluency.
(§2) The screening was performed using a modification of the assay as described in Citron et al (1997) Nature Medicine 3: 67. Briefly, cells were plated in a 384-well plate at 10^4 cells/well in Ultraculture (Lonza, BE12-725F) supplemented with 1% glutamine (Invitrogen, 25030-024), 1% non-essential amino acid (NEAA), penicillin 50 U/ml en streptomycin 50 μg/ml in the presence of test compound at different test concentrations. The cell/compound mixture was incubated overnight at 37° C., 5% CO2. The next day the media were assayed by two sandwich immuno-assays, for Aβ42 and Aβ total.
(§3) Aβtotal and Aβ42 concentrations were quantified in the cell supernatant using the Aphalisa technology (Perkin Elmer). Alphalisa is a sandwich assay using biotinylated antibody attached to streptavidin coated donorbeads and antibody conjugated to acceptor beads. In the presence of antigen, the beads come into close proximity. The excitation of the donor beads provokes the release of singlet oxygen molecules that trigger a cascade of energy transfer in the acceptor beads, resulting in light emission. To quantify the amount of Aβ42 in the cell supernatant, monoclonal antibody specific to the C-terminus of Aβ42 (JRF/cAβ42/26) was coupled to the receptor beads and biotinylated antibody specific to the N-terminus of Aβ (JRF/AβN/25) was used to react with the donor beads. To quantify the amount of Aβtotal in the cell supernatant, monoclonal antibody specific to the N-terminus of Aβ (JRF/AβN/25) was coupled to the receptor beads and biotinylated antibody specific to the mid region of Aβ (biotinylated 4G8) was used to react with the donor beads.
(§4) To obtain the values reported in Table 3, the data are calculated as percentage of the maximum amount of amyloid Beta 42 measured in the absence of the test compound. The sigmoidal dose response curves were analyzed using non-linear regression analysis with percentage of the control plotted against the log concentration of the compound. A 4-parameter equation was used to determine the IC50.
For orientation: Alpha assays give light when donor and acceptor beads are brought close together.

Assay [2] deals with T1, γ-secretase. The assay can be described thus: Screening for γ-secretase-modulating activity: Aβtotal in supernatant of SKNBE2 cells carrying hAPP 695 wild type (Alphalisa). The protocol:
as §1, §2, §3, §4

[3] abbreviates: read-out: IC50 Aβ42, SKNBE2 human neuroblastoma cells carrying hAPP 695 wild type, overnight incubation, Aβ42 in cell supernatant.
Where [4] appears, read: read-out: IC50 Aβtotal, SKNBE2 human neuroblastoma cells carrying hAPP 695 wild type, overnight incubation, Aβtotal in cell supernatant.
[5] abbreviates: read-out: IC50 Aβ42, SKNBE2 human neuroblastoma cells carrying hAPP 695 wild type, overnight incubation, Aβ42 in cell supernatant, tested form: hydrochloride.
[6] abbreviates: read-out: IC50 Aβtotal, SKNBE2 human neuroblastoma cells carrying hAPP 695 wild type, overnight incubation, Aβtotal in cell supernatant, tested form: hydrochloride.

With `Cc1cn(-c2ccc3n(c2=O)CC(C2CCOCC2)N(Cc2ccc(Cl)c(Cl)c2)C3=O)cn1` (stereo not shown), the IC50 at γ-secretase [1] (setting [3]) stood at 9550 nM; at γ-secretase [2] (setting [4]), 9.77 µM.
`Cc1cn(-c2ccc3n(c2=O)C[C@@H](c2ccccc2)N(Cc2ccc(Cl)c(Cl)c2)C3=O)cn1`: the values for the IC50 on γ-secretase [1] (setting [3]) and at γ-secretase [2] (setting [4]) were 1620 nM and greater than 10 µM, respectively.
In the same order, the values of `Cc1cn(-c2ccc3n(c2=O)CCN(CC2(c4cccc(C(F)(F)F)c4Cl)CC2)C3=O)cn1` are 170 nM and greater than 10 µM.
For `Cc1cn(-c2ccc3n(c2=O)C[C@@H](C)N(C(C)c2cc(Cl)cc(C(F)(F)F)c2)C3=O)cn1` (single isomer, unassigned) [129], in that order: 110 nM and greater than 10 µM.
For `Cc1cn(-c2ccc3n(c2=O)C[C@@H](C)N(C(C)c2cc(F)cc(OC(F)(F)F)c2)C3=O)cn1` (single isomer, unassigned) [127], the IC50 on γ-secretase [1] (setting [5]) was 180 nM; at γ-secretase [2] (setting [6]), greater than 10 µM.
In the case of `Cc1cn(-c2ccc3n(c2=O)CCN(C(C)c2cc(C(F)(F)F)cc(C(F)(F)F)c2)C3=O)cn1` (stereo not shown), the IC50 on γ-secretase [1] (setting [3]) was 130 nM; on γ-secretase [2] (setting [4]), greater than 10 µM.
As to `Cc1cn(-c2ccc3n(c2=O)CCN(CCc2ncc(-c4ccc(Cl)cc4)o2)C3=O)cn1`, the IC50 on γ-secretase [1] (setting [3]) was 910 nM; on γ-secretase [2] (setting [4]), greater than 6.03 µM.
For `Cc1cn(-c2ccc3n(c2=O)C[C@@H](C)N(Cc2ccc(C)c(N4CCCCC4)c2)C3=O)cn1`, in that order: 70 nM and greater than 10 µM.
In the same order, the values of `Cc1cn(-c2ccc3n(c2=O)C[C@H](C)N(Cc2cc(C(F)(F)F)cc(C(F)(F)F)c2)C3=O)cn1` are 630 nM and greater than 10 µM.
For `Cc1cn(-c2ccc3n(c2=O)CCN(C(C)c2ccc(Cl)c(Cl)c2)C3=O)cn1` (racemic), in that order: 680 nM and greater than 10 µM.
For the molecule `Cc1cn(-c2ccc3n(c2=O)C[C@@H](C)N(C(C)c2cc(F)cc(OC(F)(F)F)c2)C3=O)cn1` (single isomer, unassigned) [126], the results for the IC50 at γ-secretase [1] (setting [5]) and at γ-secretase [2] (setting [6]) were 110 nM and greater than 10 µM, respectively.
With `Cc1cn(-c2ccc3n(c2=O)CCN(C(C)c2ccc(Cl)c(Cl)c2)C3=O)cn1` (single isomer, unassigned), the IC50 was 380 nM at γ-secretase [1] (setting [3]) and greater than 10 µM at γ-secretase [2] (setting [4]).
For the molecule `Cc1cn(-c2ccc3n(c2=O)C[C@@H](C(C)C)N(Cc2ccc(Cl)c(Cl)c2)C3=O)cn1`, the IC50 at γ-secretase [1] (setting [3]) was 490 nM; on γ-secretase [2] (setting [4]), greater than 10 µM.
For `Cc1cn(-c2ccc3n(c2=O)C[C@@H](C)N(C(C)c2cc(F)cc(OC(F)(F)F)c2)C3=O)cn1` (single isomer, unassigned) [175], the half-inhibitory concentration (IC50) was 140 nM on γ-secretase [1] (setting [5]) and greater than 10 µM on γ-secretase [2] (setting [6]).
